Data as given in article PMC10070462, “Drug cytotoxicity screening using human intestinal organoids propagated with extensive cost-reduction strategies” (Scientific Reports, 2023).

Tested on: hiPSO-derived IECs

ivermectin
IEC-selective dose-dependent cytotoxicity: identified
